Data as given in patent US20180140703A1, “TUMOR RADIOSENSITIZATION WITH ANTIBODY CONJUGATES” (The Regents of the University California, priority 2016, published 2018).

What was measured:
OE19 cells = assay: Alamar Blue cell viability assay; format: cell-based, human; settings: HER2+ OE19 cells; dose range, up to 96 h
[1] = T-DM1 0.25 nmol combined with IR

In the case of ado-trastuzumab emtansine [T-DM1], the “cytotoxic potency (comparison)” value (OE19 cells) is reported as “more potent cytotoxic drug” and the mouse weight [1] is reported as “mice maintained their weight”.
